{
  "source": "patent US10016519B2",
  "about": "“18F-tagged inhibitors of prostate specific membrane antigen (PSMA), their use as imaging agents and pharmaceutical agents for the treatment of prostate cancer” (DEUTSCHES KREBSFORSCHUNGSZENTRUM, priority 2014, dated 2018)",
  "key": {"[1]": {"system": "mice bearing LNCaP tumor xenografts", "experiment": "Dynamic microPET imaging", "description": "FIG. 9: PET imaging of PSMA-1001. Whole-body coronal microPET images of an athymic male nude mice bearing LNCaP tumor xenografts. The tumor-targeting efficacy and pharmacokinetic properties of ^18F-PSMA-1001 were evaluated by dynamic microPET scans. Approximately 15 MBq/mouse were injected. […] The values are expressed as mean SUV (standardized uptake values).\nWhole-body coronal microPET images of an athymic male nude mice bearing LNCaP tumor xenografts. […] Approximately 15 MBq/mouse were injected. […] The values are expressed as mean SUV (standardized uptake values).\nFor in vivo experiments, 8 week old BALB/c nu/nu mice were subcutaneously inoculated into the right trunk with 5×10^6 LNCaP- or PC3-cells in 50% Matrigel. When the size of tumor was approximately 1 cm^3, the radiolabeled compound was injected via the tail vein (ca. 30 MBq, 60 pmol for μPET imaging; ca. 1 MBq, 60 pmol for organ distribution).\nFor the microPET studies, 10-25 MBq of the radiolabeled compounds in a volume of 0.15 mL (˜60 pmol) were injected via a lateral tail vein into mice bearing LNCaP tumor xenografts. The anesthetized animals (2% sevoflurane, Abbott, Wiesbaden, Germany) were placed in prone position into the Inveon small animal PET scanner (Siemens, Knoxville, Tenn., USA) to perform dynamic microPET scans and 20 min-static scans."}, "[2]": {"system": "BALB/c nu/nu mice bearing LNCaP tumor", "experiment": "Organ distribution", "assay_type": "in vivo", "conditions": "1 h after injection, tail vein, 60 pmol, n=3", "description": "The F-18 labeled compounds were injected via tail vein (1-2 MBq per mouse; 60 pmol). At 1 h after injection, the animals were sacrificed. Organs of interest were dissected, blotted dry, and weighed. The radioactivity was measured with a gamma counter (Packard Cobra II, GMI, Minnesota, USA) and calculated as % ID/g."}},
  "data": [
    {"substance": "(Glu)-(Urea)-((D)-Lys)-(2-Naphthylalanine)-(4-(Aminomethyl)benzoic acid)-FN [PSMA-1003]", "values": [
      {"measurement": "Tumor uptake SUV", "setting": "[1]; LNCaP tumor xenograft, at 57 minutes", "result": 0.9},
      {"measurement": "Uptake in the liver (microPET)", "setting": "[1]; LNCaP xenograft mice", "result": "still high"},
      {"measurement": "Organ distribution, Kidney, Mean", "setting": "[2]", "result": 32.4, "unit": "% ID/g"},
      {"measurement": "Organ distribution, LNCaP Tumor, Mean", "setting": "[2]", "result": 3.4, "unit": "% ID/g"},
      {"measurement": "Organ distribution, Liver, Mean", "setting": "[2]", "result": 3.0, "unit": "% ID/g"},
      {"measurement": "Organ distribution, Small intestine, Mean", "setting": "[2]", "result": 8.5, "unit": "% ID/g"}
    ]}
  ]
}
